# Measured values: PMC9661481 (2022)
# Test system: U-87 MG cells
# Assay: cells
# Settings: Homo sapiens, read-out: BCAA IC50 U-87 MG cell line
structure (smiles),measurement,value
CCCc1cc(=O)n2nc(NCc3c(F)cc(Cl)cc3F)c(C#N)c2[nH]1 [Compound A],IC50,5.3 µM
